{
  "source": "patent US11096881B2",
  "about": "“Use of thiophosphate derivatives as skin depigmenting agents” (dated 2021)",
  "key": {"[1]": {"assay": "Stability and colour change in cream conditions"}, "B16 melancytes": {"test_system": "B16 melancytes", "assay": "Inhibition of melanin synthesis in cultured B16 melanocytes", "conditions": "10 micromolar, 5 consecutive days"}, "[2]": {"test_system": "skin of six human volunteers with phototypes III", "assay": "5% creams on skin of human volunteers, skin colour by Dermacatch colorimeter", "conditions": "5% (w/w) cream once daily, six weeks"}},
  "data": [
    {"substance": "Cysteamine-phosphate", "values": [
      {"measurement": "stability in cream conditions", "setting": "[1]; cream", "value": "unstable"},
      {"measurement": "time to oxidation to orange-red by-product that changes the colour of the creams", "setting": "[1]; cream conditions", "value": "a few hours"},
      {"measurement": "effect on the melanin content of viable B16 melanocytes", "setting": "B16 melancytes", "value": "no effect"},
      {"measurement": "Melanin values (change after treatment)", "setting": "[2]", "value": "significantly reduced"}
    ]}
  ]
}
